{"sequences": {"note": "Amino acid sequences for entries named in this document (tags omitted).", "UniProt P21453, whole entry": "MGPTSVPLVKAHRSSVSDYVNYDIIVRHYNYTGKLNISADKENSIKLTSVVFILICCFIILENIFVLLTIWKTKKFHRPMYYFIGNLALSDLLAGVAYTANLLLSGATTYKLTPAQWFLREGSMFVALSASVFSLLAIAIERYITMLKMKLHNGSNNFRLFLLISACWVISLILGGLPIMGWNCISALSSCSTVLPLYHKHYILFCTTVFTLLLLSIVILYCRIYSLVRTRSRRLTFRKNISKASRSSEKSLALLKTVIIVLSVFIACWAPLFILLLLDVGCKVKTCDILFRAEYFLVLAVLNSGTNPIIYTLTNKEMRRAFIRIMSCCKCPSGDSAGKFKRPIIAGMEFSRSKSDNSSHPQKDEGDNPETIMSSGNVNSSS"}, "source": "ChEMBL document CHEMBL4765241", "about": "“Identification and Preclinical Pharmacology of ((1 R,3 S)-1-Amino-3-(( S)-6-(2-methoxyphenethyl)-5,6,7,8-tetrahydronaphthalen-2-yl)cyclopentyl)methanol (BMS-986166): A Differentiated Sphingosine-1-phosphate Receptor 1 (S1P) Modulator Advanced into Clinical Trials” (J Med Chem, 2019)", "key": {"[1]": {"target": "T1, Sphingosine 1-phosphate receptor 1 (Homo sapiens, UniProt P21453)", "test": "Displacement of [33P]-SIP from human recombinant S1P1 expressed in CHO cell membranes measured after 45 mins by radioligand competitive binding analysis", "design": "species or system Cell membrane"}, "[2]": {"target": "T1, Sphingosine 1-phosphate receptor 1"}, "[3]": {"target": "T1, Sphingosine 1-phosphate receptor 1", "remark": "listed apart in the source"}, "[4]": {"target": "T1, Sphingosine 1-phosphate receptor 1", "remark": "listed apart in the source"}}}
{"smiles": "COc1ccccc1CC[C@@H]1CCc2cc([C@H]3CC[C@](N)(COP(=O)(O)O)C3)ccc2C1", "values": [{"measurement": "IC50", "setting": "[1]", "result": 0.014, "unit": "nM"}, {"measurement": "EC50", "setting": "[2]", "result": 0.008, "unit": "nM"}, {"measurement": "EC50", "setting": "[3]", "result": 0.11, "unit": "nM"}, {"measurement": "EC50", "setting": "[4]", "result": 3.5, "unit": "nM"}]}
